Measurements published in US11725217B2, “Methods to enhance myocardial regeneration and/or repair” (Regents of the University of Minnesota, priority 2018, dated 2023).

Columns and labels:
[1] = tested on: isolated mouse neonatal cardiomyocytes; assay: Proliferation of cultured neonatal (P1) cardiomyocytes (cell number, EdU incorporation, Ki67, FACS); format: cell-based; conditions: CyA 5 μg/ml; n=4; p<0.05
[2] = tested on: day-60 hiPSC-CMs; assay: Proliferation of day-60 hiPSC-derived cardiomyocytes (EdU, Ki67); format: cell-based, human; conditions: n=3; p<0.05
Method: The media was then changed with RPMI/B27 minus insulin and BMP4 and FGF from d1-d2. On d3, the medium was changed with RPMI/B27 minus insulin and IWP-4. The differentiated cells were maintained in RPMI/B27 with insulin media from d5-d60. […] Immunohistochemical analysis was performed as described previously.

[3] = tested on: regenerating newt heart; conditions: n=6

For `CC1=C2C[C@H]3[C@@H](CC=C4C[C@@H](O)CC[C@@]43C)[C@@H]2CC[C@]12O[C@@H]1C[C@H](C)CN[C@H]1[C@H]2C` [CyA, Cyclopamine], the “cardiomyocyte proliferation (EdU incorporation)” value [1] was “significant decrease”, the “proliferation of day 60 hiPSC-CMs” value [2] was “significant decrease” and the “reduction in cardiomyocyte proliferation (EdU incorporation assay)” value ([3]; 21 dpi, p<0.05) was 2 fold. For the same molecule, the “reduction in cardiomyocyte proliferation (EdU incorporation assay)” value ([3]; 30 dpi, p<0.01) was 2 fold.

Like-named read-outs stand apart in the source and are kept apart here.
